Where two headings read alike, the source gives them in different places.
Legend:
[1] = molecular target: T1, human SCD5 (Homo sapiens, UniProt Q86SK9); assay: Growth inhibition of yeast strain expressing human SCD5 as sole desaturase (OLE1 deleted), OD600 readout; assay type: cell-based
T1 construct: expressed in transfected cells; host or cells: yeast strain with OLE1 deleted, plasmid-borne human SCD5 (selected in SD-Ura)
T1 sequence (Q86SK9 1-330): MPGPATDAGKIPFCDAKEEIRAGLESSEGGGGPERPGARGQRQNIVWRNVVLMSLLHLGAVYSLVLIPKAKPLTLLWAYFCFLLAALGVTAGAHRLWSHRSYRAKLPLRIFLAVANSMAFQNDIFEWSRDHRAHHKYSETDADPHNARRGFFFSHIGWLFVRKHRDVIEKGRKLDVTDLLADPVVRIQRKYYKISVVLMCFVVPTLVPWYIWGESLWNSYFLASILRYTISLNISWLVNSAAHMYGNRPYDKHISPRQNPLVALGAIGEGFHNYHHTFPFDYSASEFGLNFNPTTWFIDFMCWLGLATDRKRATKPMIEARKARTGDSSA

[2] = molecular target: T2, human SCD1 (Homo sapiens, UniProt O00767); assay: Growth inhibition of yeast strain expressing human SCD1 as sole desaturase (OLE1 deleted), OD600 readout; assay type: cell-based
T2 construct: expressed in transfected cells; host or cells: yeast strain with OLE1 deleted, plasmid-borne human SCD1 (selected in SD-Ura)
T2 sequence (O00767 1-359): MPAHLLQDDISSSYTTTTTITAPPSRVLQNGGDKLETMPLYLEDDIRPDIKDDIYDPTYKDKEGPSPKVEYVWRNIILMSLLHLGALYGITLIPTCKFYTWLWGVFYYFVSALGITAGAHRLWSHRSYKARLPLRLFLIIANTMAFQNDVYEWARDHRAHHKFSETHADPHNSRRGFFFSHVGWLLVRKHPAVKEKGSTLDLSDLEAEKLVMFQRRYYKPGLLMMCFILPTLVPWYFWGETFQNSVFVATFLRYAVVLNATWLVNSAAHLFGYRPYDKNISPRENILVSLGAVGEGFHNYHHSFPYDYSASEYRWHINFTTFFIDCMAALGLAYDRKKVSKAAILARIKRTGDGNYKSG

[3] = yeast strain expressing human SCD5 as sole desaturase, growth (OD600) after 40 h at 30° C., read-out: SCD5 IC50
[4] = yeast strain expressing human SCD1 as sole desaturase, growth (OD600) after 40 h at 30° C., read-out: SCD1 IC50

Structure (SMILES)	IC50 ([1]; SCD5 IC50)	IC50 [1, 3]	IC50 [2, 4]	IC50 ([2]; SCD1 IC50)
Cn1cc(C(=O)Nc2ccc(Oc3cccc(F)c3)cn2)ccc1=O [Compound 160, N-[5-(3-fluorophenoxy)pyridin-2-yl]-1-methyl-6-oxo-1,6-dihydropyridine-3-carboxamide]	3.07 µM			
COc1cccc(Cc2ccc(NC(=O)C3=NN(C)C(=O)CC3)nn2)c1 [Compound 182, N-(6-(3-methoxybenzyl)pyridazin-3-yl)-1-methyl-6-oxo-1,4,5,6-tetrahydropyridazine-3-carboxamide]		13.3 µM		
CN1N=C(C(=O)Nc2ccc(Cc3ccc4c(c3)COC4)cn2)CCC1=O [Example 19, N-(5-((1,3-dihydroisobenzofuran-5-yl)methyl)pyridin-2-yl)-1-methyl-6-oxo-1,4,5,6-tetrahydropyridazine-3-carboxamide]		4.69 µM		
CN1N=C(C(=O)Nc2ccc(Cc3cccc(C#N)c3)cn2)CCC1=O [Compound 8, N-(5-(3-cyanobenzyl)pyridin-2-yl)-1-methyl-6-oxo-1,4,5,6-tetrahydropyridazine-3-carboxamide]		4.2 µM		
Cn1nc(C(=O)Nc2ccc(Oc3cccc(F)c3)cn2)ccc1=O [Compound 162, N-[5-(3-fluorophenoxy)pyridin-2-yl]-1-methyl-6-oxo-1,6-dihydropyridazine-3-carboxamide]	1.79 µM			
CN1N=C(C(=O)Nc2ccc(Cc3ccccc3)cn2)CCC1=O [Compound 13, N-(5-benzylpyridin-2-yl)-1-methyl-6-oxo-1,4,5,6-tetrahydropyridazine-3-carboxamide]		1.54 µM		
CN1N=C(C(=O)Nc2ncc(Cc3ccc(F)c(F)c3)s2)CCC1=O [Compound 228, N-(5-(3,4-difluorobenzyl)thiazol-2-yl)-1-methyl-6-oxo-1,4,5,6-tetrahydropyridazine-3-carboxamide]		0.32 µM	0.34 µM	
CN1N=C(C(=O)Nc2ccc(Cc3cc(F)cc(F)c3)cn2)CCC1=O [Example 22, N-(5-(3,5-difluorobenzyl)pyridin-2-yl)-1-methyl-6-oxo-1,4,5,6-tetrahydropyridazine-3-carboxamide]		0.46 µM		
CN1N=C(C(=O)Nc2ccc(Cc3ccc(Cl)cc3)cn2)CCC1=O [Compound 12, N-(5-(4-chlorobenzyl)pyridin-2-yl)-1-methyl-6-oxo-1,4,5,6-tetrahydropyridazine-3-carboxamide]	0.21 µM			1.6 µM
CCn1cc(C(=O)Nc2ccc(Oc3cccc(F)c3)cn2)ccc1=O [Compound 164, 1-ethyl-N-[5-(3-fluorophenoxy)pyridin-2-yl]-6-oxo-1,6-dihydropyridine-3-carboxamide]		6.22 µM		
CN1N=C(C(=O)Nc2nnc(Cc3cccc(F)c3)s2)CCC1=O [Compound 211, N-(5-(3-fluorobenzyl)-1,3,4-thiadiazol-2-yl)-1-methyl-6-oxo-1,4,5,6-tetrahydropyridazine-3-carboxamide]		2.94 µM	14.6 µM	
CN1N=C(C(=O)Nc2ccc(Cc3ccc(C(F)(F)F)cc3)cn2)CCC1=O [Compound 9, 1-methyl-6-oxo-N-(5-(4-(trifluoromethyl)benzyl)pyridin-2-yl)-1,4,5,6-tetrahydropyridazine-3-carboxamide]		0.56 µM	3.04 µM	
CN1CCCC(C(=O)Nc2ncc(Cc3cccc(F)c3)s2)=N1 [Compound 217, N-(5-(3-fluorobenzyl)thiazol-2-yl)-1-methyl-1,4,5,6-tetrahydropyridazine-3-carboxamide]		2.38 µM	3.69 µM	
COc1cc(Cl)cc(Cc2ccc(NC(=O)C3=NN(C)C(=O)CC3)nc2)c1 [Example 24, N-(5-(3-chloro-5-methoxybenzyl)pyridin-2-yl)-1-methyl-6-oxo-1,4,5,6-tetrahydropyridazine-3-carboxamide]		0.29 µM	10.8 µM	
COc1cccc(Cc2cnc(NC(=O)C3=NN(C)C(=O)CC3)s2)c1 [Compound 210, N-(5-(3-methoxybenzyl)thiazol-2-yl)-1-methyl-6-oxo-1,4,5,6-tetrahydropyridazine-3-carboxamide]		1.31 µM	0.38 µM	
CN1N=C(C(=O)Nc2ccc(Cc3cc(F)c(F)c(F)c3)cn2)CCC1=O [Example 29, 1-methyl-6-oxo-N-(5-(3,4,5-trifluorobenzyl)pyridin-2-yl)-1,4,5,6-tetrahydropyridazine-3-carboxamide]		0.05 µM	11.9 µM	
CN1N=C(C(=O)Nc2ccc(Cc3cc(F)cc(C#N)c3)cn2)CCC1=O [Example 26, N-(5-(3-cyano-5-fluorobenzyl)pyridin-2-yl)-1-methyl-6-oxo-1,4,5,6-tetrahydropyridazine-3-carboxamide]		1.95 µM		
Cn1nc(C(=O)Nc2cnn(Cc3cccc(Cl)c3)c2)ccc1=O [Compound 215, N-(1-(3-chlorobenzyl)-1H-pyrazol-4-yl)-1-methyl-6-oxo-1,6-dihydropyridazine-3-carboxamide]		4.02 µM		
CN1N=C(C(=O)Nc2ccc(Cc3ccc(F)cc3)cn2)CCC1=O [Example 17, N-(5-(4-fluorobenzyl)pyridin-2-yl)-1-methyl-6-oxo-1,4,5,6-tetrahydropyridazine-3-carboxamide]		0.77 µM		
